Patent publication US6403595B1

Protein sequences, listed by entry. Tags and fused reporters are not part of them. Residues count along the entry.
UniProt P00742, 235-488 limits assumed: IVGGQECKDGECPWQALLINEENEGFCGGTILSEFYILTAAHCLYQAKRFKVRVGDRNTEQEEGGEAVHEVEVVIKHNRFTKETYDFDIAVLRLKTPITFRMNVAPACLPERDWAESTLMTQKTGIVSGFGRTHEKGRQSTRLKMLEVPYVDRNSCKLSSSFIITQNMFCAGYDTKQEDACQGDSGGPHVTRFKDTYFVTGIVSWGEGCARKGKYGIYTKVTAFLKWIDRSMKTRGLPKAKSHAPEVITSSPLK
UniProt P00742, 41-179 partner limits assumed: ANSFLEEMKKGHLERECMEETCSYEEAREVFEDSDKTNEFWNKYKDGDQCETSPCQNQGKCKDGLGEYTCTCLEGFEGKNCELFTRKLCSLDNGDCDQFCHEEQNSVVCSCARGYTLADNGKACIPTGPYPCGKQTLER

Target: human FXa (Homo sapiens, UniProt P00742)
Test: Inhibitory Effect on Human Activated Coagulation Factor X (FXa)
Details: concentration of the test compound which inhibits 50% of FXa activity; substrate S-2765, 37° C., absorbance at 405 nm; tested form: HCl
Protocol: (1) Inhibitory Effect on Human Activated Coagulation Factor X (FXa)
In 0.05M Tris-HCl buffer solution (pH 8.3) 225 μl containing 0.145 M sodium chloride and 2 mM calcium chloride, test compound dissolved in dimethylsulfoxide 51 and human FXa (0.3 unit/ml) 10 μl were reacted at 37° C. for 10 minutes. To the reaction solution was added substrate (3 mM, S-2765) 10 μl and the mixture was further reacted at 37° C. for 10 minutes. To the reaction solution was added 50% acetic acid aqueous solution 25 μl to stop the reaction.
IC50 values (concentration of the test compound which inhibits 50% of FXa activity) were calculated by measuring change of absorbance at 405 nm with microplate reader.

IC50: 50 nM
Structure (SMILES): N=C(N)c1ccc(CN2CCN(S(=O)(=O)c3ccc4cc(Cl)ccc4c3)CC2=O)cc1
